Reference: article PMC7239729 (Pharmacology, biochemistry, and behavior, 2020)

Amino acid sequences for entries named in this document (tags omitted).
UniProt P34972, whole entry: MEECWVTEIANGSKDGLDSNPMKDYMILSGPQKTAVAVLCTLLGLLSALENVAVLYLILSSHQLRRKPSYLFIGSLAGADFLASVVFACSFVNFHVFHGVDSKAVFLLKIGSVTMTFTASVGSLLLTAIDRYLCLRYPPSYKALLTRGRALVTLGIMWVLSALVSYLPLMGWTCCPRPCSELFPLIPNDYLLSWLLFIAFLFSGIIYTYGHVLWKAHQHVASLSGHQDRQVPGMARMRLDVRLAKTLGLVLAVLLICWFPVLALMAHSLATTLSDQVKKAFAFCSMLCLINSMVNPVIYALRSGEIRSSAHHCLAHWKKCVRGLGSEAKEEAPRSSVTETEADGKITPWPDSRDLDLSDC

Key:
CB1 = conditions: ref Gamage et al., 2018; cited from earlier work
hCB2 receptor = hCB2 receptor (Homo sapiens, UniProt P34972); assay: agonist-stimulated [35S]GTPγS binding, hCB2 HEK293 membranes; type: biochemical

Row | SMILES | affinity higher than EG-018 (CB1) | EC50 (hCB2 receptor)
1 | Cc1c(C(=O)NN2CCCCC2)nn(-c2ccc(Cl)cc2Cl)c1-c1ccc(Cl)cc1 [rimonabant, reference compound] | approximately 20 fold | –
2 | CCCCC/C=C\C/C=C\C/C=C\C/C=C\CCCC(=O)NCCO [anandamide] | – | 160 nM
